The nature of the data set: Measurement of solubility of sulfites in distilled water. To be noted: for Concentration, Measured value (sulfite concentration, solubility): method 0-A. As to the method:
To a cuvette for measuring absorbance (1×1×4 cm, manufactured by Hitachi High-Technologies Co.), 3 ml of 0.1 N hydrochloric acid (manufactured by Wako Pure Chemical Co., Ltd.) was added. To the cuvette, 30 μl of a sulfite solution diluted with distilled water was added, the cuvette was covered with parafilm, and inverted 3 times to mix the solutions.
Then, the mass, volume and pH at that time were measured. In addition, with regard to each solution, the sulfite concentration was measured in accordance with the method 0-A described above.
With regard to the concentration in the table, the calculated value represents the sulfite concentration (M (mol/l)) calculated from the mass and the molecular weight of each dissolved sulfite. In addition, the measured value represents the sulfite concentration (M) measured in accordance with the method 0-A described above.

Each structure is given as a SMILES string.

With `O=S([O-])[O-].[Na+].[Na+]` [Sodium sulfite, sodium sulfite], the “Concentration, Measured value (sulfite concentration, solubility)” value runs as follows: (30° C.) 1.5 M; (70° C.) 2.1 M. The compound also came in with a solubility (70° C., distilled water, saturated) of 260 mg/mL.

One may read the solubility as the concentration that dissolves in the medium under given conditions. Low readings indicate little dissolved substance, high ones much dissolved substance.

The values above are taken from patent publication US20080070240A2, “COMPOSITION FOR DEAMINATING DNA AND METHOD OF DETECTING METHYLATED DNA” (Toyo Boseki Kabushiki Kaisha, priority 2004, published 2008).
